From US20080249178A1, “MAGNESIUM COMPOSITIONS AND USES THEREOF FOR INCREASING LIFESPAN” (priority 2007, published 2008)

Experiment: Magnesium absorption rate in rats (metabolic cages, urine and feces magnesium by ICP-AES)
Settings: higher dosage compositions; magnesium chloride in water, magnesium gluconate in skim milk or water comprising 5 weight percent lactose
Procedure: Fifty 3-month old, male Sprague Dawley (SD) rats were divided into five groups of ten rats. Rats of this age and older are considered adult. Each of the rats was placed in a separate metabolic cage equipped with urine- and feces-collecting wells. All of the rats were maintained in a temperature-controlled room (22° C. to 25° C.) with a dark period from 08:00 pm to 08:00 am daily. From day 1 through day 3, each rat was fed daily 15 g of magnesium-free food and de-ionized water. […] The medium was skim milk for Composition 1 and Group 1, milk prepared from powdered milk, by diluting the powdered milk with water to obtain a composition like that of skim milk, for Composition 2 and Group 2, 1% milk cream in water for Composition 3 and Group 3, water comprising 5 weight percent lactose for Composition 4 and Group 4, and water for the Control Composition and Control Group. […]
From day 4 through day 10, urine from each rat was collected daily. The collected urine from each rat was then pooled together and the total volume of the pooled urine from each rat was recorded. The pooled urine from each rat, in an amount of […], was analyzed for magnesium content using an inductively coupled plasma-atomic emission spectrometer (ICP-AES). […] The pooled feces from each rat, in an amount of 0.5 g, were analyzed for magnesium content using an ICP-AES. […]

magnesium gluconate
magnesium absorption rate at relatively high magnesium dosage: suitably close to those associated with the lower dosage compositions
